In the assay the test system is NSCLC. The assay is described as follows: EGFR inhibitor treatment of NSCLC patient (Patient #10). Format: in vivo, human.

The structures appear in SMILES notation.

In the case of `COc1cc2ncnc(Nc3ccc(F)c(Cl)c3)c2cc1OCCCN1CCOCC1` [gefitinib], the “response to treatment course” value is reported as “partial response” and the “time to relapse (PFS)” value is 5.1 months.

The record behind these values is patent US10640830B2, “Drug selection for non-small cell lung cancer therapy” (NESTEC S.A., priority 2013, dated 2020).
